Experimental data reported in patent US20240277663A1, “PHARMACEUTICAL KITS AND USES THEREOF FOR TREATING COLORECTAL CANCER” (priority 2023, published 2024).

Biological target: T1, HDAC10 (Homo sapiens, UniProt Q969S8)
T1 sequence (Q969S8 1-669): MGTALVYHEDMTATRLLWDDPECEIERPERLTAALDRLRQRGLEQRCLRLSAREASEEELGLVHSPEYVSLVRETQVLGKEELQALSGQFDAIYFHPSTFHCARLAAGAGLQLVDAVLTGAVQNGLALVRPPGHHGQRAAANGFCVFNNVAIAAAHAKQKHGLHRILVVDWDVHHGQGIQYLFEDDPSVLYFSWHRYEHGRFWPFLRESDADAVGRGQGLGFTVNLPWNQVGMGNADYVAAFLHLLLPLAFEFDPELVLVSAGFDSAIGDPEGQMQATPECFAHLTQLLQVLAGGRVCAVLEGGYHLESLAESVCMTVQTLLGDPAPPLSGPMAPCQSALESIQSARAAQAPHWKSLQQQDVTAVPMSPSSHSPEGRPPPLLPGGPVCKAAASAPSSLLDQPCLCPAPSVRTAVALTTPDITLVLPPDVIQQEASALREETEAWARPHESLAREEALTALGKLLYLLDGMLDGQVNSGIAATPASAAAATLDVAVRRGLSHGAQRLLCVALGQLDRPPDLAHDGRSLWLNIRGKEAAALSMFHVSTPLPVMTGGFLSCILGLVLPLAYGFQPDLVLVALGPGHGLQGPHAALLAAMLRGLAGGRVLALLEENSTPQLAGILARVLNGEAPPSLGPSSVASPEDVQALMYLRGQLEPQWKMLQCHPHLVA
Assay: HDAC enzymatic activity assay (fluorogenic, Reaction Biology)
Details: read-out: HDAC enzymatic activity IC50, HDAC10; HDAC Class IIb; 10-dose IC50 format

O=C(CCCCCCC(=O)Nc1ccccc1)NO [Vorinostat]
IC50: 284 nM
